Data: patent US20080070240A2, “COMPOSITION FOR DEAMINATING DNA AND METHOD OF DETECTING METHYLATED DNA” (Toyo Boseki Kabushiki Kaisha, priority 2004, published 2008)

Assay: Measurement of solubility of sulfites in distilled water
Conditions: for Concentration, Measured value (sulfite concentration, solubility): method 0-A
Method: To a cuvette for measuring absorbance (1×1×4 cm, manufactured by Hitachi High-Technologies Co.), 3 ml of 0.1 N hydrochloric acid (manufactured by Wako Pure Chemical Co., Ltd.) was added. To the cuvette, 30 μl of a sulfite solution diluted with distilled water was added, the cuvette was covered with parafilm, and inverted 3 times to mix the solutions.
Then, the mass, volume and pH at that time were measured. In addition, with regard to each solution, the sulfite concentration was measured in accordance with the method 0-A described above.
With regard to the concentration in the table, the calculated value represents the sulfite concentration (M (mol/l)) calculated from the mass and the molecular weight of each dissolved sulfite. In addition, the measured value represents the sulfite concentration (M) measured in accordance with the method 0-A described above.

SMILES: O=S([O-])[O-].[Na+].[Na+] [Sodium sulfite, sodium sulfite]
- Concentration, Measured value (sulfite concentration, solubility) (30° C.): 1.5 M
- solubility (70° C., distilled water, saturated): 260 mg/mL
- Concentration, Measured value (sulfite concentration, solubility) (70° C.): 2.1 M
